Drawing on PubChem BioAssay AID2355 (The Scripps Research Institute Molecular Screening Center, 2010), this text covers inhibition for one compound.

Chains of the proteins cited; added tags and fusions are not shown.
UniProt P62136, whole entry: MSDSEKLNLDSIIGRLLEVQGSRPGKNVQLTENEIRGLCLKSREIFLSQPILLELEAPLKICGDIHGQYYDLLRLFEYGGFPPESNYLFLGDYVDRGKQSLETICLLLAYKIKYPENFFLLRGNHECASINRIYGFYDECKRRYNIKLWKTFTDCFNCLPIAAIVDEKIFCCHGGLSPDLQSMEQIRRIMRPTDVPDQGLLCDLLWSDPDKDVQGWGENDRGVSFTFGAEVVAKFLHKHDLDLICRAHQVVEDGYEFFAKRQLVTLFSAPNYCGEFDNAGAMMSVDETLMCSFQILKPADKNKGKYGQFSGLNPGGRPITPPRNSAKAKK

The target in this assay is Serine/threonine-protein phosphatase PP1-alpha catalytic subunit (Homo sapiens) (UniProt P62136). The experiment in a line: PP1 phosphatase inhibitors, counter-screen for PP5 inhibitor project, biochemical, fluorescence, triplicate (AID 2355). Conditions: PP1 enzyme, fluorescent phosphatase substrate; at 6.7 µM; stronger effect = higher value. For orientation: Counterscreens check selectivity or assay interference.

This is a selection; strong and weak results do not stand in their true shares. Calls of active or inactive are those of the source. Cut-off read from the data, not from the text of the source: active = inhibition above about 16%; inactive = the rest.

As for `Cc1cc(C)cc(OP(C)(N)=O)c1` (stereo unspecified), the inhibition is inactive: 0.37%.

One may read the inhibition as the percentage by which the read-out fell short of the control.
